Values of other authors, collected in paper PMC10534581, “Therapeutic Drug Monitoring in Children and Adolescents: Findings on Fluoxetine from the TDM-VIGIL Trial” (Pharmaceutics, 2023).

Test system: serotonin transporters (5-HTT)
Set-up: method as in PMID 15121647
Details: achieved on average at a dose of 20 mg, adults; cited from earlier work

For `CNCCC(Oc1ccc(C(F)(F)F)cc1)c1ccccc1` (stereo not shown) [FLX, Fluoxetine], the “occupancy of serotonin transporters (5-HTT)” value is given as 80%.
